Laboratory results published in patent US20160340659A1 (YISSUM RESEARCH AND DEVELOPMENT COMPANY OF THE HEBREW …, published 2016).

B1: HUMAN K108-E120, N124-K133 (peptide)
peptide: KKYFGRSLELYRENSVLLKLGIK
notes: K108-K133 without the three residues L121, D122, L123

Target: T1, G-Actin from rabbit muscle (rabbit, UniProt P68135 3-377)
Assay: solid-phase ELISA, immobilized rabbit G-actin

Binding result, no binding:
SINYYQV [SEQ ID NO 59 (C-terminal portion of SEQ ID NO: 58)]
ELDLNSVLLKLGIKPSINYYQV (also called E120-V141) [SEQ ID NO 58 (amino acids 120-141 of native human RNASET2)]

Target: T1, G-Actin from rabbit muscle
Assay: solid-phase ELISA: peptide added to immobilized rabbit muscle G-actin (500 ng/well), detected with rabbit anti-rhtrRNASET2 and peroxidase goat anti-rabbit IgG, A650

Binding result, no binding:
KKYFGRSLELYREL [HUMAN K108-L121]
ALNSQKKYFGRSLELYR [HUMAN A103-R119]
KKYFGRSLELYRE [HUMAN K108-E120]
KKYFGRSLELYRELD [HUMAN K108-D122]

Target: T1, G-Actin from rabbit muscle
Assay: as above
Remark: another data set of the same source

Binding result, no binding:
KKYFGRSLELYRELDLNSV [HUMAN K108-V126]
SLELYRELDLNSVLLKLGIK [HUMAN S114-K133]
KKYFGRSLELYRELDLNSVLLK [HUMAN K108-K129]
KKYFGRSLELYRELDLN [HUMAN K108-N124]
KKYFGRSLELYRELDL (also called K108-L123 (16 aa)) [peptide K108-L123]
KKYFGRSLELYRELDLNS [HUMAN K108-S125]
RSLELYRELDLNSVLLKLGIK [HUMAN R113-K133]
B1
KKYFGRSLELYRELDLNSVL [HUMAN K108-L127]
KKYFGRSLELYRELDLNSVLL [HUMAN K108-L128]
KKYFGRSLELYRELDLNSVLLKL [HUMAN K108-L130]
GRSLELYRELDLNSVLLKLGIK [HUMAN G112-K133]
